This series relates to STX429-2A (erg 6). Particulars: strain STX429-2A (erg 6). As for the experimental part: Test media are prepared by combining separately 0.5 parts STX429-2A inoculum to 100 parts of warm YEPD agar media and 2 parts of DCX45(pML82)-1B to 100 parts of warm YEPD agar media. Plates for each culture are poured. Test samples are prepared on disks in duplicate, and each is placed on a STX429-2A plate and a DCX45(pML82)-1B plate, testing 20 μg of test sample per disk. A ¼″ disk containing 10 μg of dinaconazole is used as a positive control on each plate.
The plates are incubated at 30° C. for two days and then examined to compare activity on the two strains. Actives produce a larger zone on the DCX45(pML82)-1B plate than on the STX429-2A plate.

Structures are written as SMILES.

`CC(=O)N1CCN(c2ccc(OCC3COC(Cn4ccnc4)(c4ccc(Cl)cc4Cl)O3)cc2)CC1` (stereo not shown) [ketoconazole]: the “Limit of Detection” value came to 100 ng.

The record behind these values is US6387647B1 (priority 1993, dated 2002).
